From PubChem BioAssay AID1259310 (The Scripps Research Institute Molecular Screening Center, 2017)
This is a selection; strong and weak results do not stand in their true shares. Activity calls are given as the source filed them. Rule as the data show it: active = normalized activity above about 1.9%; inactive = the rest.

By UniProt entry, the sequences of proteins in these tests, tags left out.
UniProt Q969H0, whole entry, looked up: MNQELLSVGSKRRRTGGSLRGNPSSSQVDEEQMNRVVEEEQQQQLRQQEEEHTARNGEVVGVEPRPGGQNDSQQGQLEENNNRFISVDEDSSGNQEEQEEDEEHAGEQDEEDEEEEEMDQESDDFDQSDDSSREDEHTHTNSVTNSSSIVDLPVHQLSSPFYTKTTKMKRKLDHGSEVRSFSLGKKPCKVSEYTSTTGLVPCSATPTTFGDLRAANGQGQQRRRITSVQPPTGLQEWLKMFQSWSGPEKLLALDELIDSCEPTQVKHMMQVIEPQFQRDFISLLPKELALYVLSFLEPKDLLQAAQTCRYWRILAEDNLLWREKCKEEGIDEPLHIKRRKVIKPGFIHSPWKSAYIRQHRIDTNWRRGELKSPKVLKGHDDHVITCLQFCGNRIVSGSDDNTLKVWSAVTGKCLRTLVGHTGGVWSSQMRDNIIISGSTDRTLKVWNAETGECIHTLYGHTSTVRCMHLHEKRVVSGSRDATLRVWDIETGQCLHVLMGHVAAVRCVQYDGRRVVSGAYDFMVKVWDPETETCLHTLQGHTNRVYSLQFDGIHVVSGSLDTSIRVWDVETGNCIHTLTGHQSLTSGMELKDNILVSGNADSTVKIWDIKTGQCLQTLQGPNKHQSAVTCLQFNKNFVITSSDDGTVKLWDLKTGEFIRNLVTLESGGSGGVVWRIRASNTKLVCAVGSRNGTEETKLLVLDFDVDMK

Target: F-box/WD repeat-containing protein 7 (Homo sapiens) (UniProt Q969H0)
Test: FBW7 E3 ligase activators, primary screen, biochemical, AlphaScreen, human (AID 1259310);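 also: purified mutant Fbw7 with reduced substrate affinity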
Conditions: AlphaScreen FBW7–phospho-cyclin E peptide binding, activator screen; at 26.1 µM; stronger effect = higher value

SMILES	normalized activity (activation)
O=C(Nc1cccc(F)c1)N(Cc1ccco1)C1CCN(CCc2cccs2)CC1	inactive: 0.23%
O=C(COc1ccccc1[N+](=O)[O-])N/N=C/c1cc([N+](=O)[O-])cc([N+](=O)[O-])c1O	inactive: -0.15%
C/C(=N\Nc1ccc([N+](=O)[O-])cc1[N+](=O)[O-])c1ccc([N+](=O)[O-])cc1	inactive: -0.07%
O=C(OC1CN2CCC1CC2)c1cccc(Cl)c1 (stereo not drawn)	inactive: 0.66%
CCOc1ccc(S(=O)(=O)N(CCCl)CCCl)cc1	inactive: 1.27%
CC(C)OP(=O)(OC(C)C)N1CCCCC1	inactive: -0.14%
COC(=O)N(c1ccccc1)P1OCC(C)O1 (stereo not drawn)	inactive: 0.64%
CCOC(=O)C(C)NC(=O)CSP(=O)(OCC)OCC (stereo not drawn)	inactive: 0.08%
Nc1nonc1OCc1nonc1COc1nonc1N	inactive: -0.03%
O=c1c2cc([N+](=O)[O-])ccc2[nH]c2c([N+](=O)[O-])cc([N+](=O)[O-])cc12	inactive: 0.12%
CC(=O)N(Cc1ccco1)C1CCN(CCc2ccccn2)CC1	inactive: 0.2%
COc1ccc([N+](=O)[O-])cc1NC(=O)c1ccc([N+](=O)[O-])cc1[N+](=O)[O-]	inactive: -0.07%
CCOP(=S)(NN(CCCl)c1ccccc1)OCC	inactive: -0.1%
CN(C(=O)Cc1ccc(Cl)c(Cl)c1)[C@@H]1CCCC[C@@H]1N1CCCC1	inactive: 0.1%
O=C(c1ccco1)N(Cc1cccnc1)C1CCN(CCc2ccccn2)CC1	inactive: 0.05%
CC(=O)O[C@H]1CN2CCC1[C@@H](c1ccccc1)C2 (stereo partly drawn)	inactive: -0.01%
CCOP(=O)(OCC)C(=O)c1ccccc1I	inactive: -0.28%
O=C(Nc1cccc(F)c1)N(Cc1cccnc1)C1CCN(CCc2cccs2)CC1	inactive: -0.16%
COC(=O)N(c1ccccc1)P1(=S)OCC(C)O1 (stereo not drawn)	inactive: 1.02%
O=P1(c2ccccc2)N=C(c2ccccc2)NC(C(Cl)(Cl)Cl)=N1 (stereo not drawn)	inactive: -0.06%

SMILES	normalized activity (activation)
O=[N+]([O-])c1ccc(N/N=C/c2ccc([N+](=O)[O-])o2)c([N+](=O)[O-])c1	inactive: -0.08%
ClC1CSc2nc3ccccc3n2C1 (stereo not drawn)	inactive: -0.1%
O=C(NNc1ccc([N+](=O)[O-])cc1[N+](=O)[O-])c1cccc([N+](=O)[O-])c1	inactive: -0.22%
O=C(c1cccc([N+](=O)[O-])c1)c1ccc([N+](=O)[O-])c([N+](=O)[O-])c1	inactive: -0.49%
O=C(COC(=O)C(O)(c1ccccc1)c1ccccc1)NC12CC3CC(CC(C3)C1)C2	inactive: -0.04%
Cc1c([N+](=O)[O-])cc(C(=O)c2cc([N+](=O)[O-])c(C)c([N+](=O)[O-])c2)cc1[N+](=O)[O-]	inactive: 0.36%
CN(C)c1ccc2c(c1)N1Cc3ccccc3C1=NP2(=O)c1ccccc1 (stereo not drawn)	inactive: -0.09%
CC(C)OP(=O)(OC(C)C)C(C)N (stereo not drawn)	inactive: 0.68%
CCOP1(=O)O/C(=C\Cl)CN1c1ccccc1 (stereo not drawn)	inactive: 0.07%
O=[N+]([O-])c1ccc(NCCCCNc2ccc([N+](=O)[O-])cc2[N+](=O)[O-])c([N+](=O)[O-])c1	inactive: -0.03%
CCOP(=O)(OCC)C(NC(=O)OC)C(Cl)(Cl)Cl (stereo not drawn)	inactive: -0.06%
Cc1ccc2nc(NCCCl)[nH]c2c1	inactive: -0.26%
CCOC(=O)c1ccc(NC2=NCC(CBr)S2)cc1 (stereo not drawn)	inactive: 1.46%
O=C(NNC1=NCC(CBr)S1)c1ccccc1 (stereo not drawn)	inactive: 0.02%
COC(=O)C(CC(C)C)NC(=O)NP(=O)(Oc1ccccc1)Oc1ccccc1 (stereo not drawn)	inactive: 0.13%
O=[N+]([O-])c1cc([N+](=O)[O-])c(N(CC(O)CO)c2ccccc2)c([N+](=O)[O-])c1 (stereo not drawn)	inactive: -0.27%
CCOP(=O)(OCC)C(OC(=O)C(Cl)(Cl)Cl)=C(Cl)Cl	inactive: -0.18%
O=C(c1cccnc1)N(Cc1ccco1)C1CCN(CCc2ccccn2)CC1	inactive: 0.07%
Cc1cc(NC2=NC3C(C(=O)N(C)C(=O)N3C)N2C)n(-c2ccccc2)n1 (stereo not drawn)	inactive: 0.54%
CNc1c([N+](=O)[O-])cc([N+](=O)[O-])c2nonc12	inactive: 0.54%

SMILES	normalized activity (activation)
CN(C)c1ccc(/[N+]([O-])=C/c2c([N+](=O)[O-])cc([N+](=O)[O-])cc2[N+](=O)[O-])cc1	inactive: -0.41%
O=P1(Nc2nncs2)C=C(c2ccccc2)SC(c2ccccc2)=C1	inactive: -0.02%
O=P1(Nc2nc3ccc(Cl)cc3s2)COc2ccccc2O1 (stereo not drawn)	inactive: 0.14%
Cc1ccc([N+](=O)[O-])c2no[n+]([O-])c12	inactive: -0.77%
CCOP(=O)(Nc1cccc2ccccc12)OCC	inactive: 0.06%
CCC(C(=O)OC1CN2CCC1CC2)c1ccccc1 (stereo not drawn)	inactive: -0.01%
O=C(c1cccnc1)N(Cc1cccnc1)C1CCN(CCc2cccs2)CC1	inactive: 0.53%
O=C(Nc1cccc([N+](=O)[O-])c1)c1ccc([N+](=O)[O-])cc1[N+](=O)[O-]	inactive: -0.03%
Cc1ccc(NCCc2c([N+](=O)[O-])cc([N+](=O)[O-])cc2[N+](=O)[O-])cc1	inactive: 0.5%
CCOC(=O)C(C(=O)OCC)C(O)c1c([N+](=O)[O-])cc([N+](=O)[O-])cc1[N+](=O)[O-] (stereo not drawn)	inactive: -0.13%
O=C(N/N=C\c1ccc([N+](=O)[O-])cc1)c1cc([N+](=O)[O-])cc([N+](=O)[O-])c1O	inactive: 0.57%
COP(=O)(Nc1ccc(C)cc1)OC	inactive: -0.08%
Cc1cc(Br)c(Nc2c([N+](=O)[O-])cc([N+](=O)[O-])c3nonc23)cc1[N+](=O)[O-]	inactive: -0.01%
Cc1cccc(OCC(=O)OC2CN3CCC2CC3)c1 (stereo not drawn)	inactive: 0.05%
CC(C)OP(=O)(OC(C)C)C(=O)c1ccco1	inactive: 0%
BrCC1CN=C(Nc2ccccc2)S1 (stereo not drawn)	inactive: -0.37%
COc1cc(-n2cnnn2)ccc1-n1cnnn1	inactive: -0.08%
CN(C(=O)Cc1ccc(Cl)c(Cl)c1)[C@@H]1CC[C@]2(CCCO2)C[C@H]1N1CCCC1	inactive: 0.05%
